Reference: US7778782B1, “Peroxisome proliferation activated receptor alpha (PPARα) signatures” (priority 2002, dated 2010)

Tested on: PPARα response signature
Assay: Signature Projection Score (SPS) of liver gene expression against the PPARα response signature
Settings: rat liver expression data in DrugMatrix database compared with PPARα response signature; normalised so highest training treatment = 100; *= p < 0.01, **= p < 0.001

CC(C)OC(=O)C(C)(C)Oc1ccc(C(=O)c2ccc(Cl)cc2)cc1 [FENOFIBRATE]
SPS (Sequence Projection Score): 100**
